Test results reported in US11701360B2, “Composition for inducing differentiation and protection of neural stem cells and method for inducing neuro-regeneration using the same composition” (GENUV Inc., priority 2017, dated 2023).

Tested on: mouse adult neural stem cells
Details: 10 μM amyloid-beta; compound 10 μM; second day of culture

Compound: O=C(NOC[C@H](O)CO)c1ccc(F)c(F)c1Nc1ccc(I)cc1F [PD0325901]
- cell protection and differentiation of NSC under amyloid-beta cytotoxicity: provided cell protection and induced the differentiation of NSC
